Test results as given in US11707440B2 (priority 2017, dated 2023).
“Also recorded” adds a separate entry of the source.

How the values were obtained:
[1] = tested on: female Sprague-Dawley rats, PCG/RSC of the brain; test: Single dose neurotoxicity study, intranasal instillation
[2] = tested on: female Sprague-Dawley rats, PCG/RSC of the brain; test: 14-day repeated dose neurotoxicity study, intranasal instillation; conditions: 1 mg/kg SC

Substance: (+)MK-801 maleate [reference compound]
- Animals with lesion severity scored marked ([1]; single dose study, 1 mg/kg SC): 25 out of 30 females
- Body weight loss within the first 48 hours after treatment ([1]; single subcutaneous dose 1 mg/kg): 13-14%
- Grade of most neuronal necrosis lesions ([1]; single subcutaneous dose 1 mg/kg, both studies): grade 3 or 4
- Mortality ([1]; single subcutaneous dose 1 mg/kg, single dose and repeated dose study): No mortality
- Neuronal necrosis in the PCG/RSC ([1]; single subcutaneous dose 1 mg/kg, single dose and repeated dose study, 1 mg/kg): neuronal necrosis was observed; also recorded: all treated animals; also recorded: presence
- Neuronal necrosis in the PCG/RSC ([1]; single subcutaneous dose 1 mg/kg, single dose and repeated dose study, listed as (+)MK801 maleate, 1 mg/kg): all rats
- Neuronal necrosis in the PCG/RSC ([1]; single subcutaneous dose 1 mg/kg, single dose and repeated dose study, listed as (+)MK-801, 1 mg/kg): presence
- Animals with lesion severity scored marked [2]: 7 out of 12 animals
